The text below walks through data of ChEMBL document CHEMBL5096200, “A short survey of dengue protease inhibitor development in the past 6 years (2015-2020) with an emphasis on similarities between DENV and SARS-CoV-2 proteases” (Bioorg Med Chem, 2021).

This experiment concerns the target Genome polyprotein (dengue virus type 2, UniProt P29990).

With `O=C(O)c1ccccc1-c1c2cc(I)c(=O)c(I)c-2oc2c(I)c(O)c(I)cc12`, the IC50 (in general, the concentration needed to halve the response being measured) was determined as 15 µM.
